Results reported in patent US8563530B2, “Purine nucleoside phosphoramidate” (Gilead Pharmassel LLC, priority 2010, dated 2013).

Test system: HCV replicon RNA-containing Huh7 cells (clone A cells)
Assay: HCV replicon assay
Format: cell-based
Method: HCV replicon assay. HCV replicon RNA-containing Huh7 cells (clone A cells; Apath, LLC, St. Louis, Mo.) were kept at exponential growth in Dulbecco's modified Eagle's medium (high glucose) containing 10% fetal bovine serum, 4 mM L-glutamine and 1 mM sodium pyruvate, 1× nonessential amino acids, and G418 (1,000 μg/ml). Antiviral assays were performed in the same medium without G418. Cells were seeded in a 96-well plate at 1,500 cells per well, and test compounds were added immediately after seeding. Incubation time 4 days. At the end of the incubation step, total cellular RNA was isolated (RNeasy 96 kit; Qiagen). Replicon RNA and an internal control (TaqMan rRNA control reagents; Applied Biosystems) were amplified in a single-step multiplex RT-PCR protocol as recommended by the manufacturer. The HCV primers and probe were designed with Primer Express software (Applied Biosystems) and covered highly conserved 5′-untranslated region (UTR) sequences (sense, 5′-AGCCATGGCGTTAGTA(T)GAGTGT-3′ (SEQ ID NO: 1), and antisense, 5′-TTCCGCAGACCACTATGG-3′ (SEQ ID NO: 2); probe, 5′-FAM-[…] -TAMRA-3′) (SEQ ID NO: 3).
To express the antiviral effectiveness of a compound, the threshold RT-PCR cycle of the test compound was subtracted from the average threshold RT-PCR cycle of the no-drug control (ΔCtHCV). […]

CS(=O)(=O)Nc1ccc2c(c1)S(=O)(=O)N=C(C1=C(O)[C@@H]3[C@H]4CC[C@H](C4)[C@@H]3N(Cc3ccc(F)cc3)C1=O)N2 [ANA-598]
Replicon assay result in combination with compound 1: synergism: synergism
